Test results: patent US4469786A (priority 1981, dated 1984)

Key:
DNA = conditions: known mutagenic properties; cited from earlier work
[1] = tested on: single-stranded .phi.105 DNA; assay: marker rescue mutagenesis assay, single-stranded DNA; conditions: 100 mM MNNG, 42° C., 0-10 minutes

CN(N=O)C(=N)N[N+](=O)[O-]
lesion in DNA / reactivity with DNA (DNA): mutagenic potency has been related to its capacity to alkylate oxygens in nucleic acids | marker rescue activity [1]: no significant decrease in marker rescue activity | significance (p) of increase in frequency of clear PFU ([1]; FIG. 3): < 0.001 | induction of mutations ([1]; DMF buffer pH 6.1, FIG. 3): Mutations were induced
